This note sets out measurements from patent US9340533B2, “1,4-benzothiazepine-1-oxide derivative and pharmaceutical composition utilizing the same” (priority 2009, dated 2016).

The assay has as its system right atrium in the guinea pig. Description: tissue or blood. The note with it: Cavia porcellus, read-out: concentration of 50% inhibition (IC50) of contraction width.

SMILES strings stand for the structures.

Consider `COc1ccc2c(c1)CN(C(=O)CCN1CCC(Cc3ccc(O)cc3)CC1)CC[S+]2[O-]` (centres unmarked) [compound [IV], 4-{3-[4-(4-hydroxybenzyl)piperadin-1-yl]propionyl}-7-methoxy-2,3,4,5-tetrahydro-1,4-benzothiazepine-1-oxide], for which the IC50 amounted to 110 µM.

As to `COc1ccc2c(c1)CN(C(=O)CCN1CCC(Cc3ccccc3)CC1)CC[S+]2[O-]` (centres unmarked) [compound [III], 4-[3-(4-benzylpiperidin-1-yl)propionyl]-7-methoxy-2,3,4,5-tetrahydro-1,4-benzothiazepine-1-oxide], the IC50 came to 36 µM.
